{
  "source": "patent US8278296B2",
  "about": "“Manipulation of brain CDP-diacylglycerol and uses thereof” (priority 2006, dated 2012)",
  "test_system": "phosphoinositide-specific phospholipase C / PI metabolism",
  "test": "Blockade of PI hydrolysis (neomycin, U73122) on antidepressant-induced CDP-DG, PI and IP responses in brain slices",
  "type": "cell-based, rat",
  "conditions": "for inhibition of antidepressant-induced [3H]CDP-diacylglycerol production: 100 μM fluoxetine or 300 μM imipramine, desipramine, paroxetine, maprotiline, nomifensine",
  "key": {"[1]": {"conditions": "hippocampal or prefrontal cortical slices, maximally effective antidepressant concentrations"}},
  "note": "“Also recorded” adds a separate entry of the source.",
  "data": [
    {"substance": "neomycin", "values": [
      {"measurement": "inhibition of antidepressant-induced [3H]CDP-diacylglycerol production", "setting": "hippocampal or prefrontal cortical slices", "result": "complete blockade"},
      {"measurement": "inhibition of antidepressant-induced [3H]CDP-diacylglycerol production", "setting": "hippocampal or prefrontal cortical slices, listed as Neomycin", "result": "concentration-dependently blocked; also recorded: significantly and concentration-dependently inhibited"},
      {"measurement": "inhibition of antidepressant-induced IP accumulation", "setting": "[1]", "result": "concentration-dependently blocked"},
      {"measurement": "inhibition of antidepressant-induced PI resynthesis", "setting": "[1]", "result": "complete blockade"},
      {"measurement": "inhibition of antidepressant-induced PI resynthesis", "setting": "hippocampal or prefrontal cortical slices, maximally effective antidepressant concentrations, listed as Neomycin", "result": "concentration-dependently blocked; also recorded: significantly and concentration-dependently inhibited"},
      {"measurement": "effect of inhibitor alone on CDP-diacylglycerol", "setting": "neomycin alone", "result": "not significant"},
      {"measurement": "effect of inhibitor alone on [3H]phosphatidylinositide levels", "setting": "neomycin alone, 0.3 mM", "result": "slight, but significant, increase"}
    ]}
  ]
}
